These results are taken from US11866518B2, “Bicyclic peptide ligands specific for TSLP” (BicycleTx Limited, priority 2020, dated 2024).

Test [1] has as its target T1, TSLP (Homo sapiens, UniProt Q969D9).
T1 sequence (Q969D9 29-159): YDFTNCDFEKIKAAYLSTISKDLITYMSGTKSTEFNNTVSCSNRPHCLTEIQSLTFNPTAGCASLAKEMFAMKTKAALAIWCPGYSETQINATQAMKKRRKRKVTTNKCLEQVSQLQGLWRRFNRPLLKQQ
Kind of test: Human TSLP Surface Plasmon Resonance (SPR) binding assay. Also on record: The resulting construct spCD33-6×HN-TEV-hTSLP(29-159)-Avi; 6xHN tag with TEV site (N, cleaved yes); made in house; host or cells: Expi293F cells. The conditions noted are these: biotinylated human TSLP immobilized on streptavidin chip; 20° C.; steady-state or kinetic 1:1 fit; read-out: hTSLP SPR Kd.

Test [2] addresses T1, TSLP. Kind of test: Human peripheral blood mononuclear cell assay (TSLP-induced CCL17/TARC). The conditions noted are these: read-out: CCL17 % Inhibition @ 10 μM, […] TSLP. The test is classed as cell-based. Also noted: host or cells: added to human PBMCs from healthy donors. As for the experimental part:
Human peripheral blood mononuclear cells (PMBCs) were obtained from heparinized whole blood (healthy donors) by density gradient centrifugation using Lymphoprep (StemCell Technologies, Vancouver, BC) according to the manufacturers instructions. The PBMCs were washed twice with PBS containing 2 mM EDTA and 2% fetal calf serum (FCS) and reconstituted in RPMI containing 10% FCS and 2% PenStrep at a final concentration of 3 million cells/mL. This cell suspension (100 μL) was aliquoted into the wells of a 96-well flat bottom tissue culture plate. 5 μL of bicycle peptide or vehicle (0.1% DMSO in complete medium) was then added and mixed with 5 μL of TSLPvehicle (complete medium). […] The plate was incubated for 30 minutes are rt. 10 μL of this mixture was added to cells and the plate was incubated for 24 hours in a 10% CO2, humidified incubator at 37° C. The plate was centrifuged at 300×g for 5 min and the collected supernatants frozen at −20° C. for subsequent CCL17/TARC analysis.
CCL17/TARC was determined by MSD (MesoScale Discovery, Maryland, USA) according to the manufacturer's instructions.

What is called Kd is the concentration at which binding is half-saturated. One may read the inhibition as how much of the control response was suppressed. Take `CC(=O)N[C@H]1CSCCC(=O)N2CN3CN(C2)C(=O)CCSC[C@H](NC(=O)[C@H](CC(=O)O)NC(=O)[C@H](CCC(=O)O)NC(=O)[C@H](CC(C)C)NC(=O)[C@H](Cc2cccc4ccccc24)NC(=O)[C@H](CCC(N)=O)NC1=O)C(=O)N[C@@H](Cc1c[nH]c2ccccc12)C(=O)N[C@@H](CCCNC(=N)N)C(=O)NCC(=O)N[C@@H](Cc1ccc(F)cc1)C(=O)N[C@H](C(N)=O)CSCCC3=O` [Example 27, Ac-(SEQ ID NO: 25)]: the Kd at TSLP [1] was 12 nM. In addition, the inhibition at 10 µM at TSLP [2] is 33%.
